The numbers were not newly measured in article PMC8668026 (ACS infectious diseases, 2021), which cites them from elsewhere.

Amino acid sequences for entries named in this document (tags omitted). Residues count along the entry.
UniProt P0AE06, 25-397: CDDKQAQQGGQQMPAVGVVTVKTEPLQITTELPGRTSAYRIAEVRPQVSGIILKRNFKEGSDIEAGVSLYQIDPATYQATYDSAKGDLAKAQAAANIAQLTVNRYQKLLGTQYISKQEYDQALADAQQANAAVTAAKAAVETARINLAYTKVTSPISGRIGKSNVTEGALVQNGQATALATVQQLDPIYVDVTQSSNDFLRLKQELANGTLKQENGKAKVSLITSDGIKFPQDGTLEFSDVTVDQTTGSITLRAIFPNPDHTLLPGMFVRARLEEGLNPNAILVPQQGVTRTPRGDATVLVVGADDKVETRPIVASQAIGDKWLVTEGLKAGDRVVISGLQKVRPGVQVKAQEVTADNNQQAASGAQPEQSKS

Broadly, the Kd is the equilibrium constant for the complex coming apart.

The data set has as its target AcrA (Escherichia coli, UniProt P0AE06). The following applies: read-out: KD AcrA; SPR; ref [38] and [47]; cited from earlier work.

Consider `NC(N)=NCCCC(NC(=O)[C@@H](N)Cc1ccccc1)C(=O)Nc1ccc2ccccc2c1` (stereo partly shown) [MC], for which the dissociation constant (Kd) was 280 µM.
